Data published in BindingDB's records for 12538807.

The chains behind the UniProt entries cited, without tags or fusion partners. Where a name states a change or a piece, a line headed by the entry shows the natural chain unless it says otherwise.
UniProt Q4U2R8: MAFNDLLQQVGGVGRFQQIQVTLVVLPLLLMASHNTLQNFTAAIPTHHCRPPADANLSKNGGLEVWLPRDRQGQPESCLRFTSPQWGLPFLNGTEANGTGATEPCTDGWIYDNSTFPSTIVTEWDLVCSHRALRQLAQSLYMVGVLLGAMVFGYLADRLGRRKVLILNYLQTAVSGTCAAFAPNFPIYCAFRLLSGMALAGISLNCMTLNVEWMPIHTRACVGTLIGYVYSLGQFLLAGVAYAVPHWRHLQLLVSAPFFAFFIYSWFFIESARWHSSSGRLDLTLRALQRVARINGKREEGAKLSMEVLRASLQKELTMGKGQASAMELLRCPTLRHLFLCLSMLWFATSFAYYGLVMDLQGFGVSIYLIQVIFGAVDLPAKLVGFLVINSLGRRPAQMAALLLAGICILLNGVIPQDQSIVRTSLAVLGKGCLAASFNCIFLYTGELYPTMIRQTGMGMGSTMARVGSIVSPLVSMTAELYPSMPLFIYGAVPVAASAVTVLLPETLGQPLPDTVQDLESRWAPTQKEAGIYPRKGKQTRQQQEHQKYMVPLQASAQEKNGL

Target: Solute carrier family 22 member 6 (Homo sapiens, UniProt Q4U2R8)
Assay: TP_TRANSPORTER: inhibition of PAH uptake in OAT1-COS7 cells

## N[C@H](CSC(F)(F)C(F)Cl)C(=O)O (stereo partly specified)
  IC50: 177 µM
